Drawing on ChEMBL document CHEMBL4118135, “Optimized allosteric inhibition of engineered protein tyrosine phosphatases with an expanded palette of biarsenical small molecules” (Bioorg Med Chem, 2018), this text covers IC50 for one molecule.

Chains of the proteins cited; added tags and fusions are not shown.
UniProt P35236, whole entry P171C/V205C: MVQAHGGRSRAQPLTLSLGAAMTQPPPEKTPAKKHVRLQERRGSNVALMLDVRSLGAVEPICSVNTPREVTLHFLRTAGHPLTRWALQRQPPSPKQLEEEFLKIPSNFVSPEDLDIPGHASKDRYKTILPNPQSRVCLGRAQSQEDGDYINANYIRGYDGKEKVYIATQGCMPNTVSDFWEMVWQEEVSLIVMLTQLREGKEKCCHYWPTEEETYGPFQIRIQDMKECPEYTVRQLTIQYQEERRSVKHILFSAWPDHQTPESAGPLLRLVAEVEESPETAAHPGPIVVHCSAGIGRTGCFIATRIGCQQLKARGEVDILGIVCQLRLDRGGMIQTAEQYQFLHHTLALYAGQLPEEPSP

In this assay the target is Tyrosine-protein phosphatase non-receptor type 7 (Homo sapiens, UniProt P35236, P171C/V205C). The assay can be described thus: Inhibition of allosterically sensitized mutant form of His6-tagged human HePTP catalytic domain using pNPP as substrate incubated for 90 mins by quenched phosphatase activity assay.

With `O=C(O)c1ccccc1-c1c2ccc(=O)c([As]3SCCS3)c-2oc2c([As]3SCCS3)c(O)ccc12`, the IC50 was found to be 125 nM.

A word on the IC50: it is the midpoint of a concentration-inhibition curve.
